“And” between values parts separate entries of the source, which are not always exact repeats. Equal entries are not always repeated. “Also recorded” adds a separate entry of the source.
Columns and labels:
human thrombin = target: T1, human thrombin (Homo sapiens, UniProt P00734); experiment: Thrombin chromogenic assay (S2288) with or without argatroban; assay type: biochemical; details: thrombin 5 nM; argatroban 50 nM; antidote up to 538 nM
T1 construct: catalyzes the conversion of prothrombin to thrombin
Protocol: The effect of the antidote des-Gla anhydro-fXa on thrombin activity toward a chromogenic substrate S2288 (200 μM) was measured similarly as before with or without Argatroban, a specific small molecule IIa inhibitor.
After incubation at room temperature for 20 min, an amidolytic substrate 52288 (200 uM) was added to the mixture and the rate of p-nitroanilide substrate cleavage was monitored by absorbance at 405 nm.

aPTT of human plasma = experiment: aPTT clotting assay with MLA Electra 800 automatic coagulation timer; assay type: biochemical
Protocol: (§1) Two clotting assay formats were used to test the effects of factor Xa inhibitors and the antidote on clotting prolongation. In the first format, a 96-well plate was used to measure multiple samples at the same time. In the second assay format, aPTT was measured with a conventional coagulation instrument (MLA Electra 800 automatic coagulation timer).
The effect of 1 antiXa Unit/mL LMWH on aPTT prolongation of plasma and the reversal of inhibitory effect was measured by a MLA Electra 800 Automatic coagulation timer. 100 μL pooled citrate anticoagulated human plasma was mixed with enoxaparin and different concentrations of antidote. Prior to measurement of clotting time, aPTT reagent (Actin FS, Dade Behring) and CaCl2) were added per manufacturer's instructions.

[1] = test system: clot formation in human plasma; experiment: Clotting prolongation assay, 96-well plate format (OD405 turbidity change); assay type: biochemical
Protocol: as §1
In the 96-well plate format method, human platelet poor plasma or platelet rich plasma was prepared similarly as procedures in Example 2. 75-100 μL plasma was recalcified with CaCl2), incubated at 37° C. for 3 minutes and clot formation was initiated by adding tissue factor (Innovin, Dade Behring) or an aPTT reagent (Actin FS, Dade Behring). Change of OD405 was monitored continuously by a plate reader (Molecular Devices). Clotting time was defined as the time (second) when the half maximal value of absorbance (OD405 nm) change was reached. Factor Xa inhibitor and antidote, when present, were pre-incubated with plasma at room temperature for 20 minutes before initiation of the reaction.
Turbidity changes were measured according to procedures described in Example 3.

thrombin generation = experiment: Thrombin generation assay in platelet poor or platelet rich plasma (RFU); assay type: biochemical, human; details: 680 nM antidote; varying concentrations of betrixaban
Protocol: In this example, human platelet poor or platelet rich plasma samples were prepared from blood of healthy donors drawn into 0.32% citrate. PRP and PPP were prepared by spinning the anticoagulated blood at ˜100×gravity or 1000× gravity for 20 minutes, respectively, at room temperature. 75-100 microliter (uL) plasma was mixed with CaCl2) and Z-Gly-Gly-Arg-aminomethylcoumarin (Z-GGR-AMC, a thrombin fluorogenic substrate). Tissue factor (Innovin, Dade Behring) was added to initiate the generation of thrombin. For a typical experiment, the reaction mixture contained 15 millimolar (mM) Ca′, 100 micromolar (04) Z-GGR-AMC, and 0.1 nanomolar (nM) tissue factor (TF) (Innovin). Thrombin formation was monitored continuously at 37° C. by a fluorometric plate reader (Molecular Devices) measuring the relative fluorescence units (RFU). Inhibitor and antidote, when present, were pre-incubated with plasma for 20 minutes at room temperature before initiation of thrombin generation.

Purified fXa = Purified fXa (Homo sapiens, UniProt P00742); experiment: In vitro correction of inhibition of purified fXa by fXa inhibitors; assay type: biochemical
Protocol: As expected, the antidotes contemplated by this invention were also able to bind and neutralize other active site directed fXa inhibitors. […] Purified fXa (3.0 nM), inhibitor (7.5 nM), and different concentrations of antidote were incubated for 10 min at 22° C. in a buffer with 20 mM Tris, 150 mM NaCl, 0.1% BSA, pH7.4. fXa activity was assayed similar to Example 4.

whole blood INR = experiment: In vivo mouse model, whole blood INR after oral betrixaban and IV antidote; design: species or system male C57Bl/6 mice; details: for % Correction / Expected INR / Measured INR: mean
Protocol: 15 mg/kg was used for antidote treated group.

[2] = Binding affinity of antidote to betrixaban (nonlinear regression of initial velocities); details: read-out: Kd (binding affinity with betrixaban)
Protocol: After incubation at room temperature for 20 minutes, 100 μM Spectrozyme-fXa (a factor Xa chromogenic substrate, American Diagnostica) was added to the mixture and the rate of substrate cleavage was monitored continuously for 5 minutes at 405 nanometer (nm) by a plate reader. In FIG. 5, the chromogenic activity was normalized to active fXa in the absence of any inhibitor.

[3] = test system: prothrombin time of pooled human plasma; experiment: Prothrombin time (PT) human plasma clotting assay; assay type: biochemical; details: 1.9 μM recombinant antidote
Protocol: In FIG. 20, the effect of recombinant antidote protein on reversal of anticoagulation by a small molecule factor Xa inhibitor (rivaroxaban, Bay 59-7939) was tested in a human plasma clotting assay. As reported by Perzborn et al, J. Thromb. Haemost. 3:514-521, 2005; prothrombin time measurements are an accurate method for evaluating the anticoagulant effect of rivaroxaban. The effect of 1 μM rivaroxaban on prothrombin time (PT) prolongation of pooled human plasma and the reversal of inhibitory effect was measured by a MLA Electra 800 Automatic coagulation timer. 100 μL pooled citrate anticoagulated human plasma was mixed with rivaroxaban and different concentrations of antidote. Prior to measurement of clotting time, rabbit brain Thromboplastin C Plus reagent (Dade Behring) was added to plasma samples per manufacturer's instructions. Addition of 1.9 μM recombinant antidote produced a 100% correction of anticoagulation produced by 1 μM rivaroxaban.
In Table F, the effect of recombinant antidote protein on reversal of anticoagulation by apixaban was tested in a human plasma clotting assay. […] The effect of 1 μM and 1.5 μM apixaban on prothrombin time (PT) prolongation of pooled human plasma and the reversal of inhibitory effect was measured by a MLA Electra 800 Automatic coagulation timer. […]

[4] = Pharmacokinetics of antidote in rat; assay type: in vivo, Sprague-Dawley rats; details: SD rats
Protocol: One milligram of antidote was administered as a short intravenous infusion over five minutes to four Sprague-Dawley rats. Serial plasma samples were collected and analyzed for antidote concentration using an enzyme-linked immunosorbent assay (ELISA). Plasma concentration-time profiles of the antidote can be described by a two compartment model. […] Because of the need to immediately maintain antidote plasma concentration above that of a factor Xa inhibitor (the anticoagulant), the distribution half-life is expected to have a much bigger impact than the terminal half-life on the dose selection during an overdose treatment.

[5] = Pharmacokinetics of antidote in rhesus monkey; assay type: in vivo; details: rhesus monkeys; 10 mg IV over ten minutes; listed as recombinant antidote
Protocol: Two animals were each dosed with 10 mg antidote by intravenous dosing over a ten minute period. Plasma samples for determination of T1/2 were carried out in a manner similar to that in the rat study.

Question: With “pd-Antidote: des-Gla anhydro fXa derivative, SEQ ID NO. 10; chymotryptic digestion of anhydro-fXa removes Gla-domain residues 1-44” as the molecule, how does the “effect on thrombin activity and its inhibition by argatroban” value (human thrombin) read?
Answer: Its value is “did not exhibit significant antidote activity; also recorded: does not detectably affect”.

Question: And the “antidote concentration for return of aPTT to near normal level of control plasma” value (aPTT of human plasma; 400 nM betrixaban)?
Answer: The value was “higher than 1610 nM”.

Question: And the “effect on aPTT of control plasma” value (aPTT of human plasma; antidote alone, highest concentration tested 2576 nM)?
Answer: The value was “no effect”.

Question: What about the EC50 (aPTT of human plasma; with 400 nM betrixaban, read-out: EC50 of the antidote) of the same molecule?
Answer: The EC50 was ~656 nM.

Question: And the “effect on the anticoagulant activity of enoxaparin” value ([1]; enoxaparin 0.3125-1.25 U/mL, 563 nM antidote, aPTT reagent)?
Answer: Its value is “capable of reversing the anticoagulant activity; also recorded: significantly neutralized”.

Question: What about the “reversal of the anticoagulant activity of betrixaban” value (thrombin generation) of the same molecule?
Answer: Its value is “complete reversion; also recorded: substantially complete restoration of fXa activity”.

Question: And the “correction of the inhibitory effects of tested inhibitors” value (Purified fXa; 204 nM pd-Antidote, betrixaban, rivaroxaban, apixaban 7.5 nM)?
Answer: Its value is “at least 60%”.

Question: And the “reduction of functional betrixaban based on INR measurements” value (whole blood INR; betrixaban 15 mg/kg PO, single IV injection of antidote 300 ug, […])?
Answer: The value was > 50%.

Question: What about the “% Correction” value (whole blood INR; pd-Antidote treated mice, […]) of the same molecule?
Answer: Its value is 7.2%.

Question: And the “Expected INR” value (whole blood INR; pd-Antidote treated mice, […])?
Answer: The value was “.0”.

Question: What about the “Measured INR” value (whole blood INR; pd-Antidote treated mice, […]) of the same molecule?
Answer: Its value is “.9”.

Question: What about the Kd [2] of the same molecule?
Answer: The Kd was 0.319 nM and 0.32 nM.

B1: r-Antidote: fXa derivative lacking residues 6-39 of SEQ ID NO. 3, S379A, expressed in CHO cells, after removal of the linker (SEQ ID NO. 13) (protein)
chain: ANSFLFWNKYKDGDQCETSPCQNQGKCKDGLGEYTCTCLEGFEGKNCELFTRKLCSLDNGDCDQFCHEEQNSVVCSCARGYTLADNGKACIPTGPYPCGKQTLERIVGGQECKDGECPWQALLINEENEGFCGGTILSEFYILTAAHCLYQAKRFKVRVGDRNTEQEEGGEAVHEVEVVIKHNRFTKETYDFDIAVLRLKTPITFRMNVAPACLPERDWAESTLMTQKTGIVSGFGRTHEKGRQSTRLKMLEVPYVDRNSCKLSSSFIITQNMFCAGYDTKQEDACQGDAGGPHVTRFKDTYFVTGIVSWGEGCARKGKYGIYTKVTAFLKWIDRSMKTRGLPKAKSHAPEVITSSPLK
Question: For B1, which correction of anticoagulation ([3]; 1 μM rivaroxaban) is on record?
Answer: The correction of anticoagulation was 100%.

Question: And the correction of anticoagulation ([3]; […] apixaban)?
Answer: Its correction of anticoagulation is 97%.

Question: What about the “correction of the inhibitory effect of enoxaparin” value ([1]; 50 nM r-Antidote, 1.25 U/mL enoxaparin) of the same molecule?
Answer: Its value is > 75%.

Question: And the “correction of the inhibitory effect of enoxaparin” value ([1]; 508 nM r-Antidote, 0.3125-1.25 U/mL Enoxaparin)?
Answer: The value was > 75%.

Question: And the “plasma half life of clearance (T1/2)” value [4]?
Answer: Its value is 19 min.

Question: And the “plasma half life of clearance (T1/2)” value [5]?
Answer: Its value is 30 min.

Question: What about the reversal of apixaban (Purified fXa; 186 nM r-Antidote, apixaban) of the same molecule?
Answer: The reversal of apixaban was > 70%.

Question: What about the “correction of ex vivo whole blood INR” value (whole blood INR; betrixaban 15 mg/kg PO, single IV injection of r-antidote) of the same molecule?
Answer: The value was > 50%.

Question: What about the “% Correction” value (whole blood INR; r-Antidote treated mice, […]) of the same molecule?
Answer: Its value is 7.3%.

Question: And the “Expected INR” value (whole blood INR; r-Antidote treated mice, […])?
Answer: Its value is “.0”.

Question: What about the “Measured INR” value (whole blood INR; r-Antidote treated mice, […]) of the same molecule?
Answer: The value was “.3”.

— patent publication US10954503B2, “Antidotes for factor Xa inhibitors and methods of using the same” (Alexion Pharmaceuticals, Inc., priority 2007, dated 2021)
